# Target: T1, EP2 receptor (Homo sapiens, UniProt P43116)
# Sequences of proteins named here, by UniProt entry; tags and fusion partners are left off. A change or cut given only in a name is not applied to a line headed by its entry.
# UniProt P43116: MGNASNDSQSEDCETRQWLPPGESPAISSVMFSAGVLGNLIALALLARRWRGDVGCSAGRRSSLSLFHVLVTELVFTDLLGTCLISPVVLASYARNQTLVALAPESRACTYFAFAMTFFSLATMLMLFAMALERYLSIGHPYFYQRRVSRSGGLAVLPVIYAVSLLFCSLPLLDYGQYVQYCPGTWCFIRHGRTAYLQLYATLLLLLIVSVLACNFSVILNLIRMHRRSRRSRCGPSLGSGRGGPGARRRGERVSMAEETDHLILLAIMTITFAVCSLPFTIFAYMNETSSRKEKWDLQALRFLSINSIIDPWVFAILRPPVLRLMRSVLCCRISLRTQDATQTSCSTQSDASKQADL
# T1 construct: expressed in transfected cells; host or cells: HEK-T
# Experiment: cAMP response to PGE2 in HEK-T cells (EP2 co-transfection)
# Type: cell-based
# Conditions: transfected HEK-T cells
# Description: An assay was established for measuring cAMP in transiently transfected cells that takes advantage of the fact that most cells that are transfected with one gene, can be simultaneously transfected with other genes. Thus, the NPFF1 and NPFF2 receptors were transfected along with a Gs-coupled receptor (EP2) at a ratio of 5:1. In un-transfected HEK-T cells there is no response to PGE2 (agonist for EP2) at doses as high 10 μM. […] Improvement was also detected in the sensitivity of the assay in some cases when cells are co-transfected with AC5 at ½-⅕ of the amount of DNA of the Gi-coupled receptor studied.
smiles,measurement,value
CCCCC[C@H](O)/C=C/[C@H]1[C@H](O)CC(=O)[C@@H]1C/C=C\CCCC(=O)O [PGE2],EC50,0.17 µM

# Source: US20050136444A1 (priority 2003, published 2005)
